Values quoted from earlier work, collected in patent publication US20190282692A1, “SELECTIVE LOCAL INHIBITION OF TNFR1-MEDIATED FUNCTIONS AT THE SITE OF ANTIGEN/ALLERGEN PRESENTATION” (priority 2012, published 2019).

Conditions: 600 mg to 1000 mg NAC three times daily orally, 4 weeks; cited from earlier work

Which “safety of high doses” value does the source give for `CC(=O)N[C@@H](CS)C(=O)O` [NAC, N-acetyl-L-cysteine] here?
Its value is “safe”.
